According to patent US5283180A, “Bioluminescence method for the determination of pesticides” (priority 1992, dated 1994):

Tested on: Bee Brain Activity for Ac-luciferin (esterase activity of bee brain extract)
Assay type: biochemical, honey bees
Protocol: 1. Sample is preincubated with a predetermined quantity (dilution 1:200) of brain preparation for 5 minutes.
2. Luciferin acetate (200 pmoles) is added to the incubation mixture for additional 5 minutes.
3. A portion of this […] mixture (100 μl) is withdrawn and added to the luciferase and ATP reaction mixture (1 ml).
4. Bioluminescence reading for 2-5 seconds is monitored.
5. The reading of the pesticide sample is compared to the control sample to quantitate the percent inhibition of the sample (see Tables 3, 4, 5 and 6) .
Insects are stored from at -20° C. or below. Insect heads are collected by dissection with a scalpel and placed in a 50 ml beaker containing approximately 15 ml ice cold 0.07M phosphate buffer, pH 7.0, containing 1 mM EDTA (ethylenediaminetetra acetic acid) and 1 μM phenylthiourea. The insect heads are gently homogenized at low speed in a Tekmar Tissumizer. Aliquots of this crude extract are transferred to microcentrifuge tubes and centrifuged. […] Fractions are collected every 2 minutes and monitored for esterase activity using luciferin acetate as a substrate and measuring bioluminescence. […]
6. […] In the positive samples the esterolitic activity of the bee extract will be inhibited and less luciferin will form giving a low bioluminescent reading. Divide sample reading or positive control by zero control and multiply to 100 to get percent inhibition.

SMILES: CCOP(=S)(OCC)Oc1cc(C)nc(C(C)C)n1 [Diazinon]
- % activity (50 ppb pesticide): 45%

SMILES: COP(=S)(OC)Oc1ccc([N+](=O)[O-])cc1 [Methyl parathion]
- % activity (5.0 ppb pesticide): 15%

Where two headings read alike, the source gives them in different places.
